Laboratory results taken from paper PMC5972519 (Journal of pharmaceutical and biomedical analysis, 2016).

Assay: Plasma pharmacokinetics of
Format: in vivo, Wistar rat
Details: Chronic Arm / Acute Arm, 30 min post dosing

CNC1(c2ccccc2Cl)CCCCC1=O (racemic) [(R,S)-Ket, (R,S)-Ketamine, reference compound]
Plasma concentration Ratio (C/A): 0.93
